Data on two substances can be found in patent US4164571A, “Medicament which antagonizes the action of gastrin and related polypeptides” (Commissariat a l'Energie Atomique, priority 1976, dated 1979).

Data set [1] relates to mice. The settings on record: i.p., logit-log paper. From the text: All the dead or surviving animals are autopsied, the stomach and the small intestine are examined for heamorrhages or ulcers.
The target in data set [2] is T1, specific receptors of the gastrin (cyclasic adenylate activity) (Rattus norvegicus, UniProt P30553).
T1 construct: plasma membranes were prepared from a male white rat of the Wistar CF strain; from tissue; host or cells: rat (Wistar CF) fundal gastric mucosa, plasma membrane fraction of density 1.12-1.14 g/cm3
T1 sequence (P30553 1-452): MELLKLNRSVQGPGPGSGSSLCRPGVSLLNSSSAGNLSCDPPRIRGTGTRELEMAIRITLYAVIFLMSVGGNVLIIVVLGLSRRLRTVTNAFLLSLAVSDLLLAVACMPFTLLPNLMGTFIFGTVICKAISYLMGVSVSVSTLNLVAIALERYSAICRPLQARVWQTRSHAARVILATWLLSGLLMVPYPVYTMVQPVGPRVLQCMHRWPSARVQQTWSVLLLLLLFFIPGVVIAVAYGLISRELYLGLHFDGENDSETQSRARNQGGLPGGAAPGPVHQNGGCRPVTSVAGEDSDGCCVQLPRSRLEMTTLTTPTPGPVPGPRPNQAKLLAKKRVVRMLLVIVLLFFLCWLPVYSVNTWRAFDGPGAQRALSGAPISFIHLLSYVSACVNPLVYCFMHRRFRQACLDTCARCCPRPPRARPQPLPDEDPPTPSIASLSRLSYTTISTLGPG
The data set is described as follows: cyclasic adenylate activity of rat fundus membrane fractions. Type of data set: biochemical. The note with it: dose 10^-8 M. As to the method:
Initially plasma membranes were prepared from a male white rat of the Wistar CF strain weighing 250±50 g, stabilised beforehand for one month in an animal house by a standard feed of autoclaved biscuits 113 UAR. […] The stomach was removed, opened in accordance with the greater curvature and washed in the following medium containing 0.25 M of saccharose, 30 nM of trihydroxymethylaminomethane - hydrochloric acid buffer at pH 7.4 and a temperature of 0° to 4° C. […]
The microsomal mass was diluted in 50 ml of a medium containing 0.25 M of saccharose and 3 mM of trihydroxymethylaminomethane-hydrochloric acid buffer at pH 7.4 and a temperature of 0° to 4° C., after which it underwent zonal centrifuging in a Spinco 50 L Beckman refrigerated ultracentrifuge with Ti 14 roto in a 7% linear gradient (1.04 g/cm^3) at 60% (1.30 g/cm^3) of saccharose up to isopycnic equilibrium, i.e. 15 h at 20,000 r.p.m. and 4° C. After equilibration the gradient was collected in 25 ml fractions and the densities were determined by refractometry. […]

Data set [3] deals with T2, biological receptor sites of the gastrin (Rattus norvegicus, UniProt P30553).
T2 construct: plasma membranes were prepared from a male white rat of the Wistar CF strain; from tissue; host or cells: rat (Wistar CF) fundal gastric mucosa, plasma membrane fraction of density 1.12-1.14 g/cm3
T2 sequence (P30553 1-452): T1 sequence (P30553 1-452)
In words: fixing of tritiated gastrin I to plasma membranes of the fundus of the rat. The note with it: tritiated gastrin I 10^-8 M, gastrin I-NPS 2.10^-8 M. Type of data set: binding.

On to “Boc-Gly-Trp-(NPS)-Met-Aspe-Phe-NH2 [pentagastrin-NPS]”, for which, in data set [1], the “LD 50” value was “higher than 3.2 mg/kg”.

On to “orthonitrophenyl sulphenylated gastrin I [gastrin I-NPS]”, for which the “stimulation of the cyclasic adenylate activity” value in data set [2] is “no stimulation”. The “reduction of equilibrium plateau of tritiated gastrin I fixed to plasma membranes” value in data set [3] is reported as “about 70%”.
